Earlier results in PMC11990924, “Inhibition of Tyrosinase and Melanogenesis by Carboxylic Acids: Mechanistic Insights and Safety Evaluation” (Molecules, 2025).

Tested on: mice
Settings: cited from earlier work

CC(O)C(=O)O (stereo not shown) [lactic acid]
oral LD50: 4875 mg/kg
